# Data from ChEMBL document CHEMBL1122436, “Structure-activity studies of dermorphin. Synthesis and some pharmacological data of dermorphin and its 1-substituted analogues” (J Med Chem, 1983).
# Species on record: Cavia porcellus
# Assay: Inhibition of electrically evoked twitches in guinea pig ileum relative to morphine.
# Format: functional
compound,measurement,value
CN1CC[C@]23c4c5ccc(O)c4O[C@H]2[C@@H](O)C=C[C@H]3[C@H]1C5 [MORPHINE],Relative potency,1
